Laboratory results from PMC9469185, “Cannabinoid Receptors and Glial Response Following a Basal Forebrain Cholinergic Lesion” (ACS Pharmacology & Translational Science, 2022).

Sequences of proteins named here, by UniProt entry; tags and fusion partners are left off. A change or cut given only in a name is not applied to a line headed by its entry.
UniProt P47936: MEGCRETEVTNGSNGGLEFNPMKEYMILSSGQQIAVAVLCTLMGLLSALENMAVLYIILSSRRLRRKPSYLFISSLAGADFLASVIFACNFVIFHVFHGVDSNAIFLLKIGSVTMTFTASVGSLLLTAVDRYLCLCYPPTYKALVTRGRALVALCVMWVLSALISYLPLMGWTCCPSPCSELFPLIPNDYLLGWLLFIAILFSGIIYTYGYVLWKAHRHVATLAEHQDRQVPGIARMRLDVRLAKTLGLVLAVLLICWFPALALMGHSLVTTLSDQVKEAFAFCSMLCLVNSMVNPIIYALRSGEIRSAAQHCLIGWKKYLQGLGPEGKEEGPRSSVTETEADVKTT

Biological target: T1, CB2 (CB1-/- mouse spleen membranes) (Mus musculus, UniProt P47936)
T1 construct: gene Cnr2; native receptor in spleen membranes of CB1 knockout mice
Experiment: [3H]CP55, […] displacement, filtration
Assay type: binding
Conditions: 0.5 nM radioligand, 2 h, 37 °C, pH 7.4

Cc1ccc(Cn2nc(C(=O)N[C@@H]3C(C)(C)[C@@H]4CC[C@@]3(C)C4)cc2-c2ccc(Cl)c(C)c2)cc1 [SR144528]
Ki: 10^-10.1 M
